Laboratory results taken from patent US12447152B2, “Pharmaceutical combination of PRMT5 inhibitors” (Lupin Limited, priority 2019, dated 2025).

System: MIA PaCa-2 human pancreatic cancer xenograft
Experiment: In vivo efficacy study of Compound-24 with BI-3406, MIA PaCa-2 xenograft
Conditions: mouse, 50 mg/kg

## COc1cc2nc(C)nc(N[C@H](C)c3cc(N)cc(C(F)(F)F)c3)c2cc1O[C@H]1CCOC1 [BI-3406, N—((R)-1-(3-amino-5-(trifluoromethyl)phenyl)ethyl)-7-methoxy-2-methyl-6-(((S)-tetrahydrofuran-3-yl)oxy)quinazolin-4-amine, reference compound]
  % tumor growth inhibition: 47.97±11.91%
